# Screens: PubChem BioAssay, Broad Institute
# Casp6 inh: inhibitors of human caspase-6; inhibition, % at 12.5 µM; purified caspase-6, Z-VEID-R110 cleavage fluorescence; AID 686996; 0.53% of 350,000 active;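 active means mean inhibition across replicates at least about 35%, with every replicate also reaching that limit, limit read from the data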;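 further: 0% = median of neutral control wells and 100% = no fluorescence left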
# RAD54 branch: RAD54 (human) branch migration inhibition; Q92698; AID 602329; RAD54 Holliday junction branch migration, FAM/BHQ fluorescence; 0.14% of 360,000 active; inhibition, % at 10.4 µM;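 active means mean normalized replicate activity at least 40 and at least half of replicates scoring 40 or more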;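 further: 0% = median of neutral control wells and 100% = median of positive control wells; inhibitors cause a drop in the FAM fluorescence signal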
# GSIS activator: GLuc luminescence reporter in INS-1E cells, primary screen for activators of glucose-dependent secretion of insulin; INS-1E GLuc reporter insulin secretion, 2-3 h; AID 743287; 0.61% of 370,000 active; activation, % at 16.6 µM;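 active means lowest replicate activation of at least 40%, so every replicate reaches that level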;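 further: 0% = median of neutral control wells and 100% = median of IBMX positive control wells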
# PglD inh: inhibitors of Campylobacter jejuni PglD acetyltransferase; 0.098% of 360,000 active; purified PglD enzyme, DTNB colorimetric CoA detection; AID 602405; inhibition, % at 12.5 µM; in the data active means inhibition above about 16%, passing the limit was not always enough
# RAD52 inh: RAD52 (human) annealing inhibition. recombinant RAD52 DNA annealing, FRET fluorescence. inhibition, % at 18.7 µM. 0.46% of 360,000 active. AID 651710;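 active means every replicate showing at least 50% inhibition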
# Yeast UUG start: alters start codon recognition fidelity in yeast. S. cerevisiae UUG-firefly luciferase reporter, luminescence/redox ratio. AID 602363. activity score, % at 18.7 µM. hit rate 0.13% among 350,000;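 active = replicate mean at a twofold rise or more, about +100% in these data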;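 note: firefly luciferase made from a UUG start codon reports start codon fidelity; reporter light over untreated wells divided by growth signal over untreated wells; some hits fall short of that in this replicate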
# * marks the source's active call; other numbers are inactive results; . = no result given. A selection: hits, their analogues and other compounds. The true share with any hit is near 1.5%.
# Screens by letter – A = Casp6 inh; B = RAD54 branch; C = GSIS activator; D = PglD inh; E = RAD52 inh; F = Yeast UUG start
> Cc1ccn2cc(-c3cccc(NC(=O)CCC(=O)O)c3)nc2c1
  A: 6	B: 3	C: 2	D: -2	E: -9	F: -12

> O=C(O)CCc1ccc(S(=O)(=O)Nc2cc(C(F)(F)F)ccc2N2CCCC2)cc1
  A: 67*	B: -1	C: -1	D: 0	E: -11	F: -14

> Cc1ccc(S(=O)(=O)Nc2cc(C(=O)O)ccc2N2CCCCC2)cc1
  A: 6	B: .	C: 125	D: .	E: -15	F: .

> Cc1cc(C)n(-c2nc(SCC(=O)O)c3c4c(sc3n2)COC(C)(C)C4)n1
  A: 2	B: .	C: 43*	D: .	E: -6	F: .

> COc1ccccc1NC(=O)CSc1n[nH]c(Cc2ccccc2)n1
  A: 1	B: -1	C: 43*	D: 1	E: -11	F: -14

> CCc1nc(SCC(=O)Nc2ccccc2C)n[nH]1
  A: 0	B: -18	C: 1	D: 2	E: 5	F: -6

> CCCN(C)C[C@H]1Oc2cc(-c3cncnc3)ccc2S(=O)(=O)N([C@@H](C)CO)C[C@H]1C
  A: -5	B: -4	C: 12	D: 7	E: 3	F: .

> N=C1/C(=C/c2ccc(-c3cccc(C(=O)O)c3)o2)C(=O)N=C2SC(CC(=O)N3CCOCC3)=NN12
  A: 31	B: -20	C: 23	D: 2	E: -97	F: -12

> N=C1/C(=C\c2ccc(-c3cccc(C(=O)O)c3)o2)C(=O)N=C2SC=C(c3ccccc3)N12
  A: 50*	B: .	C: 12	D: .	E: -50	F: .

> C[C@H]1CN=C(N(C)C)N1CC1CCCC1
  A: -4	B: -4	C: 54*	D: -6	E: -6	F: -10

> C[C@H]1CN=C(N(C)C)N1CC1CCCCC1
  A: 3	B: -5	C: 10	D: 1	E: -6	F: -15

> O=C(O)CCCCCn1c(O)c(C=C2N=c3ccccc3=N2)sc1=S
  A: 15	B: .	C: .	D: .	E: -83	F: .

> O=C(O)CCCn1c(O)c(C=C2N=c3ccccc3=N2)sc1=S
  A: 41*	B: -10	C: 18	D: -13	E: -44	F: -17

> O=C(O)c1cccc(-n2c(O)c(C=C3N=c4ccccc4=N3)sc2=S)c1
  A: 59*	B: -10	C: -16	D: -19	E: -50	F: -13

> COc1ccc(-c2ccc([C@@H]3[C@H](CO)N4CCCCN(C(=O)c5ccc6c(c5)OCO6)C[C@@H]34)cc2)cc1
  A: 0	B: -6	C: -30	D: 6	E: 43	F: 0

# The listing continues:
# Screens by letter – A = Casp6 inh; B = RAD54 branch; C = GSIS activator; D = PglD inh; E = RAD52 inh; F = Yeast UUG start
> Cc1ccc(C)c(S(=O)(=O)N2CCCOC2CNC(=O)C(=O)NCCCn2ccnc2)c1 (configuration not stated)
  A: .	B: .	C: -2	D: .	E: .	F: .

> Cc1nc2ccc(NC(=O)CCC3CCCC3)cc2s1
  A: 81*	B: 4	C: -9	D: -6	E: -25	F: -26

> Cc1nc2ccc(NC(=O)CCS(=O)(=O)c3ccc(Cl)cc3)cc2s1
  A: -2	B: .	C: -4	D: .	E: -27	F: .

> COC(=O)c1ccccc1NC(=O)c1cc(-c2ccco2)on1
  A: 66*	B: 1	C: 5	D: 0	E: -19	F: -12

> C=CCn1c(SC2CCOC2=O)nc2sc(CC)cc2c1=O (configuration not stated)
  A: .	B: -7	C: 59*	D: 0	E: .	F: 1

> N#Cc1c(NC(=O)c2ccc([N+](=O)[O-])o2)sc2c1CCC2
  A: 59*	B: -5	C: -3	D: -1	E: 7	F: -7

> CCn1c(SCc2nc(-c3ccccc3)no2)nnc1-c1ccco1
  A: .	B: 6	C: .	D: 6	E: .	F: -3

> O=C(N/N=C/c1ccc(Cl)cc1Cl)Nc1ccccc1
  A: .	B: -4	C: 42*	D: -2	E: .	F: -22

> CC(C)CNC(=O)C1(C)CCCCCN1C(=O)c1cc2ccccc2s1 (configuration not stated)
  A: 2	B: -8	C: -13	D: -2	E: 7	F: 1

> CC(C)CNC(=O)C1(C)CCCCCN1C(=O)c1cccnc1 (configuration not stated)
  A: 56*	B: 0	C: .	D: 10	E: 4	F: -13

> CCCC1CCc2c(sc(NC(=O)OCC)c2C#N)C1 (configuration not stated)
  A: .	B: -5	C: .	D: -1	E: .	F: -16

> NC(=O)COC(=O)c1ccccc1Oc1ccccc1
  A: 0	B: .	C: 46*	D: .	E: -15	F: .

> O=C(NCC1CCN(Cc2cccc(Cl)c2)CC1)Nc1ccc(Cl)cc1
  A: -4	B: 3	C: -32	D: -1	E: -1	F: -6

> S=C(NCc1cccnc1)Nc1cccc2ccccc12
  A: 1	B: -10	C: 6	D: 2	E: -1	F: -13

> CCn1cc(CNC(=S)Nc2cccc3ccccc23)cn1
  A: 53*	B: .	C: -2	D: .	E: -17	F: .

# (listing goes on)
# Screens by letter – A = Casp6 inh; B = RAD54 branch; C = GSIS activator; D = PglD inh; E = RAD52 inh; F = Yeast UUG start
> O=c1c2sccc2n(Cc2cccc(F)c2)c(=O)n1-c1ccc(F)cc1
  A: .	B: .	C: 46*	D: .	E: .	F: .

> COCCCn1c(=O)c2sccc2n(Cc2cccc(F)c2)c1=O
  A: -3	B: 2	C: 6	D: -2	E: -10	F: 2

> CCOC(=O)c1cc(NC(=O)c2cnccn2)cc(C(=O)OCC)c1
  A: .	B: 7	C: 86*	D: 0	E: .	F: -23

> CCOC(=O)c1cccc(NC(=O)c2cnccn2)c1
  A: .	B: 0	C: .	D: 3	E: .	F: -11

> Cc1ccc(NC(=O)C2=C(c3ccccc3)S(=O)(=O)CCS2(=O)=O)cc1
  A: 7	B: .	C: 155*	D: .	E: -3	F: .

> CN(C)c1cc(Cl)c2nonc2c1N
  A: 99*	B: -40	C: -9	D: -1	E: -21	F: -4

> NC1=NC(=O)C(Cc2ccc(F)cc2)S1 (configuration not stated)
  A: -2	B: -15	C: 2	D: -3	E: -1	F: -18

> COc1cccc(C(=O)OC(C)C(=O)NCC2CCCCC2)c1 (configuration not stated)
  A: 36*	B: 7	C: -20	D: 3	E: -5	F: -6

> O=C(O)C1C2C=CC(C2)C1C(=O)Nc1ccccc1Br (configuration not stated)
  A: 48*	B: -13	C: 13	D: 1	E: -7	F: -12

> Cc1c(NC(=O)CN2C(=O)C3C4C=CC(C4)C3C2=O)c(=O)n(-c2ccccc2)n1C (configuration not stated)
  A: .	B: 5	C: .	D: 5	E: .	F: -12

> CN(C)c1ccc(NC(=O)C2C3C=CC(C3)C2C(=O)O)cc1 (configuration not stated)
  A: 42*	B: 16	C: -16	D: 6	E: 58*	F: -8

> Cc1c(NC(=O)C2C3C=CC(C3)C2C(=O)O)c(=O)n(-c2ccccc2)n1C (configuration not stated)
  A: 36*	B: .	C: -12	D: .	E: -3	F: .

> Clc1c(-c2nnc3n2CCCCC3)sc2ccccc12
  A: .	B: 7	C: .	D: -3	E: .	F: -19

> Cc1cc(NC(=O)COC(=O)c2oc3c(Cl)cccc3c2C)no1
  A: .	B: 12	C: 65*	D: 4	E: .	F: -13

> Cc1cc(NC(=O)COC(=O)CCS(=O)(=O)c2ccc(C)c(C)c2)no1
  A: 2	B: -4	C: 9	D: 2	E: -6	F: -16

# Additional entries follow.
# Screens by letter – A = Casp6 inh; B = RAD54 branch; C = GSIS activator; D = PglD inh; E = RAD52 inh; F = Yeast UUG start
> Cc1cc(NC(=O)COC(=O)CCS(=O)(=O)c2cc(Cl)ccc2Cl)no1
  A: 3	B: -1	C: 41*	D: -7	E: 5	F: -21

> COc1ccc(N2CCN(C(=O)c3cc4cc(Cl)ccc4[nH]3)CC2)cc1
  A: 4	B: -4	C: -8	D: -6	E: -24	F: -5

> Cc1ccc(NS(=O)(=O)c2ccc(Cl)c(NC(=S)NC(=O)C3CCCCC3)c2)cc1Cl
  A: .	B: .	C: 13	D: .	E: .	F: .

> CCCCCn1c(SC(C)C(C)=O)nc2c1c(=O)[nH]c(=O)n2C (configuration not stated)
  A: -7	B: -6	C: 73*	D: .	E: -7	F: -4

> CC(C)CCn1c(N2CCC(C(N)=O)CC2)nc2c1c(=O)[nH]c(=O)n2C
  A: -1	B: 4	C: 6	D: 4	E: -9	F: 8

> C/C(Cl)=C/CSc1nc2c(c(=O)[nH]c(=O)n2C)n1C(C)C
  A: .	B: -6	C: 74*	D: -3	E: .	F: -9

# Grouped by structure: those above with a cyano group
# Screens by letter – A = Casp6 inh; B = RAD54 branch; C = GSIS activator; D = PglD inh; E = RAD52 inh; F = Yeast UUG start
> N#Cc1c(NC(=O)c2ccc([N+](=O)[O-])o2)sc2c1CCC2
  A: 59*	B: -5	C: -3	D: -1	E: 7	F: -7

> CCCC1CCc2c(sc(NC(=O)OCC)c2C#N)C1 (configuration not stated)
  A: .	B: -5	C: .	D: -1	E: .	F: -16
